# Molecular target: hPD-L1/Fc (human) (UniProt Q9NZQ7)
# The chains behind the UniProt entries cited, without tags or fusion partners. Residues count along the entry.
# UniProt Q9NZQ7, 19-239 limits assumed: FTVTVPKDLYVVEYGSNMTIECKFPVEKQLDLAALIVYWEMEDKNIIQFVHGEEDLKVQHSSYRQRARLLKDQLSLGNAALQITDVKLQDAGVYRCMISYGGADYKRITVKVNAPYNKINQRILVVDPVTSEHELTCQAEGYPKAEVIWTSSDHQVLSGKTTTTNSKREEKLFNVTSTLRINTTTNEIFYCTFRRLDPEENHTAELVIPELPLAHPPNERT
# Experiment: SPR (BIAcore), hPD-L1/Fc immobilised; reference is the hPD-1 monomer
substance,measurement,value
hPD-1 tetramer (biotinylated hPD-1 extracellular domain bound to R-PE-streptavidin) (from UniProt Q15116 25-145; P22629 37-163),"increase in the binding activity, times the monomer",26 times
